Molecular target: T1, IcSPP; Ilumatobacter coccineus sucrose 6^F-phosphate phosphorylase (Ilumatobacter coccineus, UniProt A0A6C7EEG6)
T1 construct: gene YM304_32550
Conditions: phosphate ion in active site (Arg152, Glu264, Asp327, Tyr377, Gln378); reservoir contained 200 mM Na/K phosphate pH 7.5

Sequences of proteins named here, by UniProt entry; tags and fusion partners are left off. A change or cut given only in a name is not applied to a line headed by its entry.
UniProt A0A6C7EEG6: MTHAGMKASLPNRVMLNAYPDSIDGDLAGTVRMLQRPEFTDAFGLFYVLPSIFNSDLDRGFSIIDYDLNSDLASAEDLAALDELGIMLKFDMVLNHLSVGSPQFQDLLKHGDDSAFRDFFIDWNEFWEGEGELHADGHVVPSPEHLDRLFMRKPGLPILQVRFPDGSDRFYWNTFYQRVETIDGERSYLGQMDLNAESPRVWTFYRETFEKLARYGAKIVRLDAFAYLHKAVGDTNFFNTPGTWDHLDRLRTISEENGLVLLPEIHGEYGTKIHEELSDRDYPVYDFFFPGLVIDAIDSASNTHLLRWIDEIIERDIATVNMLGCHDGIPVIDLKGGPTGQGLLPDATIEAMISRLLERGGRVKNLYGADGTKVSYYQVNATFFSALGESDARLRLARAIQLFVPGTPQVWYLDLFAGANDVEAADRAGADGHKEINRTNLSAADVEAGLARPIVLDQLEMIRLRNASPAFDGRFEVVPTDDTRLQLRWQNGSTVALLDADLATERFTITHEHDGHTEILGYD

## O=P(O)(O)O [phosphate]
  X-ray crystal structure, 2.05 Å: In the structure of IcSPP, a phosphate ion is found interacting with Arg152, Glu264
